As usually defined, the Ki is the dissociation constant of the complex between target and ligand, obtained from inhibition or displacement. The low end stands for higher affinity, the high end for lower affinity.

Protein sequences, listed by entry. Tags and fused reporters are not part of them.
UniProt P25099, whole entry: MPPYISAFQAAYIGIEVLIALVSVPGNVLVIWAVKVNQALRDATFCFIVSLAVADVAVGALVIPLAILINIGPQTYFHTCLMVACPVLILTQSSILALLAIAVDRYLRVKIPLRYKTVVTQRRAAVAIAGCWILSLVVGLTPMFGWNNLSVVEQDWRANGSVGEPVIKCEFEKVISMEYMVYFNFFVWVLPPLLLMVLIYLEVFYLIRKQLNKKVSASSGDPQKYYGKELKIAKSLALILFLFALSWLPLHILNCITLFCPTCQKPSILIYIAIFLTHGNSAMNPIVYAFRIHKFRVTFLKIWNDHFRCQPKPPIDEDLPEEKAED

Here are results for 1 compound from ChEMBL document CHEMBL1124142, “N6-[2-(3,5-dimethoxyphenyl)-2-(2-methylphenyl)ethyl]adenosine and its uronamide derivatives. Novel adenosine agonists with both high affinity and high selectivity for the adenosine A2 receptor” (J Med Chem, 1988).

The experiment concerns the target Adenosine receptor A1 (Rattus norvegicus, UniProt P25099). In words: biochemical.

`OC[C@H]1O[C@@H](n2cnc3c(NCC4c5ccccc5-c5ccccc54)ncnc32)[C@H](O)[C@@H]1O` registered a Ki of 5.2 nM.
